Test results published in PubChem BioAssay AID1273 (Columbia University Molecular Screening Center, 2008).
Only a part is listed here, and it is no random draw. Calls of active or inactive are those of the source.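 How the source made its calls: active means inhibition above the mean plus 3 SD, with well images judged a real hit on visual review (cut at about 60% in these data, passing the limit was not always enough); inconclusive means inhibition over the cutoff but images rejected on review; inactive means inhibition not above the cutoff.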

Assay: inhibitors of insulin promoter-driven GFP, primary screen, imaging, TRM-6 cells (human fetal islet line), eGFP reporter, cell count (AID 1273)
Conditions: at 2 µM, active compounds read high, reporter expression induced with tamoxifen

| SMILES | inhibition |
| --- | --- |
| COc1ccc(N/C(=N/P(=O)(N2CCOCC2)N2CCOCC2)N2CCOCC2)cc1 | inactive: -45.5% |
| Cc1c2c(nc3ccccc13)SC(C(Cl)Cl)C2 (centres undefined) | inactive: -21.4% |
| O=C(OC1CN2CCC1CC2)C12CC3CC(CC(C3)C1)C2 (centres undefined) | inactive: -7.14% |
| CCN(CC)CCCOC(=O)C(O)(c1ccccc1)c1ccccc1 | inactive: 6.67% |
| Cc1cc(=O)[nH]c(N[N+](=O)[O-])n1 | inactive: 27.3% |
| COc1ccc2nc(NP(=O)(c3ccccc3)c3ccccc3)sc2c1 | inactive: -25% |
| CCOC(=O)c1ccc(NP(C)(=O)Oc2ccccc2)cc1 (centres undefined) | inactive: 26.7% |
| ClCCSc1nnc(-c2cccnc2)o1 | inactive: 12.9% |
| CCN(CC)C(=S)SC(NC=O)C(Cl)(Cl)Cl (centres undefined) | inactive: 32.6% |
| COc1ccc(OP(C)(=O)Nc2cccc(F)c2)cc1 (centres undefined) | inactive: -12.3% |
| CC(C)(C)c1ccc(OP(C)(=O)Nc2ccc(SC(F)(F)F)cc2)cc1 (centres undefined) | inactive: -7.41% |
| Cc1ccc2nc3c(c(C)c2c1)CC(C(Cl)Cl)S3 (centres undefined) | inactive: -19.4% |
| CP(=S)(Nn1cnnc1)Oc1ccccc1 (centres undefined) | inactive: 47.6% |
| COc1ccccc1OP(C)(=O)Nc1ccccc1 (centres undefined) | inactive: 0% |
| CP(=O)(Nc1ccccc1Br)Oc1ccccc1 (centres undefined) | inactive: 0% |
| CCOP(C)(=S)SCC(=O)NC(C)C(=O)O (centres undefined) | inactive: 0% |
| CCOC(=O)c1ccc(NP(C)(=O)Oc2ccc(OC)cc2)cc1 (centres undefined) | inactive: 18.4% |
| CCC(C)N(CC(C)C)C(=S)SC(NC(C)=O)C(Cl)(Cl)Cl (centres undefined) | inactive: -18.8% |
| CP(=O)(Nc1ccccn1)Oc1ccc(Cl)cc1 (centres undefined) | inactive: 48.6% |
| COP1(=S)c2c(C)nn(CCC#N)c2N=C(c2ccc(F)cc2)N1C (centres undefined) | inactive: -42.9% |
| CP(=O)(NC(=O)Nc1ccccc1)Oc1ccccc1 (centres undefined) | inactive: -18.2% |
| Cc1cc(C)cc(OP(C)(=O)Nc2ccc(SC(F)(F)F)cc2)c1 (centres undefined) | inactive: 29.6% |
| Cc1nc2ccc3ccccc3c2s1.O=[N+]([O-])c1cc([N+](=O)[O-])c(O)c([N+](=O)[O-])c1 | inactive: 6.06% |
| CC1(CBr)Cn2c(nc3ccccc3c2=O)S1 (centres undefined) | inactive: 2.33% |
| CN1CCCCC1COC(=O)C1(O)c2ccccc2CCc2ccccc21 (centres undefined) | inactive: 9.38% |
| COc1ccccc1OP(C)(=O)Nc1c(C)cccc1C (centres undefined) | inactive: -2.78% |
| CCCOc1ccc(NP(C)(=O)Oc2ccc(Cl)cc2)cc1 (centres undefined) | inactive: -33.3% |
| CP(=O)(Nc1ccc(SC(F)(F)F)cc1)Oc1ccccc1 (centres undefined) | inactive: 6.67% |
| Cc1ccc(OCC(=O)OC2CN3CCC2CC3)cc1 (centres undefined) | inactive: 7.89% |
